Patent US20240350491A1, “METHODS AND COMPOSITIONS FOR IMMUNE CONTROL THROUGH DICKKOPF-1” (Baylor College of Medicine, priority 2021, published 2024)

Tests used:
[1] = system: platelet-depleted mice; type: in vivo
Excerpt: Bronchoalveolar lavage further retrieved gross blood from mouse lungs that contained abundant hemoglobin (FIG. 6F).
Thus, normal and platelet-depleted mice were challenged intranasally with synthetic candidalysin, which alone is sufficient to induce allergic airway disease (FIG. 8). […] Candidalysin induced more than a 2-fold increase in plasma Dkk-1 in platelet sham-depleted mice but had no effect on plasma Dkk-1 in mice almost entirely deficient in circulating platelets (FIG. 11H).
Wildtype mice were give 2 μg/g of platelet depleting antibody intraperitoneally (R300, Emfret Analytics, Wurzburg, Germany) as described (Lam et al., 2011). Depletion of platelets from mice in the allergic airway disease model was carried out with intraperitoneal injection of the antibody with each intranasal challenge, 8 times over 2 weeks as described above.

[2] = system: host cells; settings: Moyes et al., 2016; cited from earlier work
[3] = system: Human platelets; experiment: Platelet activation and binding to candidalysin (flow cytometry); type: cell-based; settings: acute activation; 10 or 20 μM
Protocol: Platelets (1×10^9/mL) were pretreated with anti-GP1bα (Clone AK2 at 10 μg/mL, Invitrogen, Carlsbad, CA) or A1A2A3 von Willebrand factor tridomain protein for 1 h at room temperature and then incubated with untagged, Alexafluor-647-tagged candidalysin (10 or 20 μM), or scrambled peptide control for 1 h at room temperature. Activation was assessed by CD62P upregulation (304910, Biolegend, San Diego, CA) and AF-647-candidalysin binding to platelets was assessed by flow cytometry (Nagy Jr et al., 2013).
Alternatively, platelets were treated with biotinylated candidalysin (10 or 20 μM) or scrambled peptide control (20 μM) for 1 hour, washed with CGS buffer, and stained using ALEXA FLUOR® 647-tagged streptavidin for 30 minutes.

For `CC[C@H](C)[C@H](NC(=O)CNC(=O)[C@H](CCSC)NC(=O)[C@@H](NC(=O)[C@@H](NC(=O)CNC(=O)[C@@H](NC(=O)[C@@H](NC(=O)[C@@H](N)CO)[C@@H](C)CC)[C@@H](C)CC)[C@@H](C)CC)[C@@H](C)CC)C(=O)N[C@@H](CC(C)C)C(=O)NCC(=O)N[C@@H](CC(N)=O)C(=O)N[C@H](C(=O)N1CCC[C@H]1C(=O)N[C@@H](CCC(N)=O)C(=O)N[C@H](C(=O)N[C@H](C(=O)N[C@@H](CCC(N)=O)C(=O)N[C@H](C(=O)N[C@H](C(=O)N[C@@H](CCSC)C(=O)N[C@@H](CO)C(=O)N[C@H](C(=O)N[C@H](C(=O)N[C@@H](CCCCN)C(=O)N[C@@H](C)C(=O)N[C@@H](Cc1ccccc1)C(=O)N[C@@H](CCCCN)C(=O)NCC(=O)N[C@@H](CC(N)=O)C(=O)N[C@@H](CCCCN)C(=O)O)C(C)C)[C@@H](C)CC)[C@@H](C)CC)[C@@H](C)CC)[C@@H](C)CC)C(C)C)[C@@H](C)CC` [candidalysin], the “adverse events in thrombocytopenic mice” value ([1]; repeated candidalysin challenge, data not shown) is listed as “epistaxis and one died”, the mortality or illness ([1]; single challenge into airways of platelet-depleted mice) is listed as “no mortality or apparent illness” and the “concentrations at which candidalysin acutely induces lysis of host cells” value [2] is listed as “above 20 μM”. The platelet lysis [3] was “without inducing lysis”.
